Test results: doi:10.1101/2025.03.14.643303, “A genome-scale drug discovery pipeline uncovers new therapeutic targets and a unique p97 allosteric binding site in Schistosoma mansoni” (bioRxiv, 2025)
Read-outs that look alike come from different tables or passages of the source.

By UniProt entry, the sequences of proteins in these tests, tags left out.
UniProt P55072, whole entry: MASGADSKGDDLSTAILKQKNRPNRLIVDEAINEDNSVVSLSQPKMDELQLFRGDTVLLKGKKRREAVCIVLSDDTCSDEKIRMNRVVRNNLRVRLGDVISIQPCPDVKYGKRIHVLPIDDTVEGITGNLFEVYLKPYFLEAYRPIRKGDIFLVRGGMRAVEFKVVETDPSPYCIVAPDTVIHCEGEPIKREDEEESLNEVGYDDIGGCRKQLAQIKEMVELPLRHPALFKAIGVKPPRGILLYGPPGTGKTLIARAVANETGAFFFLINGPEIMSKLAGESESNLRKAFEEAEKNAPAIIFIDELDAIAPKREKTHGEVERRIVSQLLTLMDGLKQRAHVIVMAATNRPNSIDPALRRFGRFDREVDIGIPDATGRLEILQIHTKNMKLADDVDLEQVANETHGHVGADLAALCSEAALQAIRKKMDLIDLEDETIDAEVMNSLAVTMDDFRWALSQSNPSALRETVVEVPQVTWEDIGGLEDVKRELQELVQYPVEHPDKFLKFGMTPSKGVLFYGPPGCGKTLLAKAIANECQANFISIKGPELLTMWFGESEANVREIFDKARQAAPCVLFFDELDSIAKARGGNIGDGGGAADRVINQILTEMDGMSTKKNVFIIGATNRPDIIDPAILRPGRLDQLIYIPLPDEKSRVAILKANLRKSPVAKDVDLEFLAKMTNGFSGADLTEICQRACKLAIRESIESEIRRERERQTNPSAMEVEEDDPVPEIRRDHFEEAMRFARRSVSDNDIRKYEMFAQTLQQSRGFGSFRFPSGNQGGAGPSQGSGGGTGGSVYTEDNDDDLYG
UniProt G4M0P7, entry or part of it: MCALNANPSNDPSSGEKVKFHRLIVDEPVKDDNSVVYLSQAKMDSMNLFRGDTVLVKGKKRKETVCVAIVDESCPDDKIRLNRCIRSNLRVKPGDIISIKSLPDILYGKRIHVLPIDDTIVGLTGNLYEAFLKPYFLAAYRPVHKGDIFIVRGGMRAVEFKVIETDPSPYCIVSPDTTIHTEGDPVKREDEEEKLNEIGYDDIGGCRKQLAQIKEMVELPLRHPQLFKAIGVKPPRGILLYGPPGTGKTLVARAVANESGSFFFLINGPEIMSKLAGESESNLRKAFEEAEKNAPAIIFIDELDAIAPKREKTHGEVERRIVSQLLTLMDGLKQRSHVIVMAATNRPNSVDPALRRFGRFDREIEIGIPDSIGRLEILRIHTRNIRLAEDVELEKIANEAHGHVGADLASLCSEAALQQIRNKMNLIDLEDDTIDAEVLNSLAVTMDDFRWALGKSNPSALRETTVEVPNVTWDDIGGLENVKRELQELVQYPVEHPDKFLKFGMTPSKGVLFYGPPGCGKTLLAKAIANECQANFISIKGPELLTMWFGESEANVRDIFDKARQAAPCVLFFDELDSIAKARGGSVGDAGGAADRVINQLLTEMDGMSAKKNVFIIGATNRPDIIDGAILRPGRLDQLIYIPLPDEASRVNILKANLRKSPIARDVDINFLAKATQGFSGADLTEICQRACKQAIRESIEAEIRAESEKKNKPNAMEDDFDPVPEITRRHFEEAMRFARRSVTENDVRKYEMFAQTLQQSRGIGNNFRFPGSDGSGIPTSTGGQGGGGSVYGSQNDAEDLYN

Experiments:
H. sapiens p97 (P55072) = target: T1, H. sapiens p97 (P55072) (Homo sapiens, UniProt P55072); test: p97 ATPase activity, ATP consumption assay (Kinase-Glo), IC50 / counter screen; type: biochemical
T1 construct: 6xHis (C); made in house; host or cells: E. coli BL21 (DE3)

[1] = target: S. mansoni p97 (Smp_018240) (Schistosoma mansoni, UniProt G4M0P7); test: biochemical
Protocol: E. coli BL21 (DE3) containing the desired plasmid were grown in LB medium containing […] kanamycin while shaking at 37 °C to an OD600 of 0.6–0.8. The temperature was reduced to 18°C and 0.8 mM isopropyl-beta-D-thiogalactopyranoside (IPTG) was added. The bacterial culture was harvested 16hr later by centrifugation. The resulting pellet was suspended in 60 mL lysis buffer/2L bacterial culture [20 mM Tris (pH 7.4), 300 mM NaCl, 5 mM MgCl2, 20 mM imidazole, 1% Triton X-100, 1 mg/mL lysozyme, 10% glycerol, 3 mM β-mercaptoethanol, 0.2 mM PMSF, and protease inhibitor tablet (Roche)]. […] The lysate was centrifuged at 40,000 × rpm for 35 min at 4°C. The resulting supernatant was incubated with Ni-NTA beads equilibrated to lysis buffer for 1 hr at 4°C before being loaded onto a gravity column. The bead bed was washed with wash buffer [20 mM Tris (pH 7.4), 500 mM NaCl, 5 mM MgCl2, 40 mM imidazole, 0.05% Triton X-100, 10% glycerol, 3 mM β-mercaptoethanol, 0.2 mM PMSF, 0.001 mg/mL Aprotinin, and 0.002 mg/mL Leupeptin], then eluted in the same buffer with 250 mM imidazole in wash buffer. Fractions containing p97 were concentrated using Pierce Protein Concentrators (100k MWCO) and loaded onto a gel-filtration column (Superdex 200PG) and eluted using SEC buffer [20 mM Tris (pH 7.4), 180 mM NaCl, 5 mM MgCl2, and 10% glycerol] at 0.5 mL/min flow rate on a BioRad NGC Chromatography System. Fractions corresponding to an apparent molecular weight of 500 – 600 kDa were collected and analyzed by 4–20% SDS/PAGE to evaluate purity. Concentration was determined using a BSA standard. Fractions containing purified protein were aliquoted, snap frozen in liquid nitrogen, and stored at −80 °C until use.
For manual ATP consumption assays, 1 μM p97 was incubated with 1% DMSO or inhibitor (1% DMSO final) in assay buffer [50 mM Tris (pH 7.5), 20 mM MgCl2, 1 mM EDTA, 0.5 mM tris(2-carboxyethyl)phosphine (TCEP)] for 5 minutes prior to the addition of 20 μM ATP in a 384-well plate for a total reaction volume of 10 μL, and a final concentration of 500nM enzyme and 10 μM ATP. The reaction was allowed to proceed for 50 minutes at room temperature before adding equivalent volume of Kinase-Glo Plus reagent (Promega), and a further incubation of 10 minutes in the dark.
IC50 values were calculated using GraphPad Prism.

adult S. mansoni worms = test: Treatment of adult S. mansoni worms in culture with inhibitors (attachment to tissue culture substrate, morphology; single 10 μM and dose-response EC50); type: cell-based, Schistosoma mansoni; conditions: for EC50: Schistosoma mansoni, adult parasites, fraction of worms attached, 72 hours of drug treatment, in culture until D5, 50 μM - 10 nM, Suppl. Fig. 9C
Protocol: Adult S. mansoni (NMRI strain) (6–7 weeks post-infection) worms were harvested from infected female Swiss Webster mice by hepatic portal vein perfusion using 37°C DMEM (Mediatech, Manassas, VA), 8% Horse Serum, and heparin.
Roughly 5 adult worm pairs were placed in 3mL Basch medium in a 12-well culture vessel, and incubated at 37°C, 5% CO2 for the length of the experiment. Compound was administered at D0, D1, and D2, media and drug refreshed every 24 hr. Worms were then allowed to remain in culture until D5, where a final assessment of worm attachment to tissue culture substate was made by light microscopy. Observations on movement and morphology were also recorded. A negative control (0.1% DMSO) and positive control (PZQ; 10 μM in 0.1% DMSO) were included in each experiment, and each experiment was repeated in triplicate for validation. For compounds that caused complete detachment in replicate experiments, the treatment was expanded to three concentrations (10 μM, 5 μM, and 1 μM) following the same treatment schedule and controls as detailed above. […] Each titration experiment was performed in triplicate according to the treatment regimen described above, using DMSO and PZQ as appropriate controls. Morphologies and motility were assessed by light microscopy, and dose-response curves were calculated using the primary readout of parasite attachment to tissue culture substrate in GraphPad Prism. […]
[…] Values were calculated using Prism.

HepG2 cells = test: HepG2 cytotoxicity assay (Cell Titer Glo 2.0); type: cell-based; conditions: Homo sapiens
Protocol: HepG2 cells (ATCC) were plated at 2500 cells/well in 50 μL/well, dispersing cells using a 25g needle to break up clumps prior to plating. Plates were incubated for 24hr at 37C, 5% CO2. Following 24hr, 50 μL media containing 0.6% DMSO was added to a set of wells on one plate. The plate and Cell Titer Glo 2.0 reagent were brought to RT. A T=0 read was taken by adding 40 μL reagent/well, rocking the plate at 100 rpm for 2 min, then reading luminescence ~10 min later. […] 50 μL 2x concentrated compound was added to wells containing cells in 50 μL 24 hr after plating. Concentrations were tested in triplicate at following values: 30, 10, 3.3, 1.1, 0.37, 0.12, and 0.04 μM. Plates were incubated for 72 hr at 37C, 5% CO2. Following equilibration to room temperature, 40 μL undiluted reagent was added to each well, the plate rocked at 100 rpm for 2 min and then read for luminescent signal ~10 min later.
Values are plotted in excel and the 50% point determined by interpolation. Values were revisualized in Prism.

## O=C(C#CC1CCCCC1)Nc1ccc2oc(-c3ccccn3)nc2c1 [Compound 733, 3-cyclohexyl-N-(2-(pyridin-2-yl)benzo[d]oxazol-5-yl)propiolamide]
H. sapiens p97 (P55072)
  IC50: 43 ± 4.4 µM
[1]
  Fold Selectivity: 1.3
  IC50: 34 ± 1.6 µM
  activity on the enzyme: abolishing activity on the enzyme
Adult S. mansoni worms
  EC50: 3.2 µM
Adult S. mansoni worms; benzoxazole propiolamide series, 10 μM, treated 72 hours, monitored until D5
  effect on adult worms: still active on worms

## O=C(C#Cc1ccncc1)Nc1ccc2oc(-c3ccc(C(F)(F)F)cn3)nc2c1 [Compound 808, 3-(pyridin-4-yl)-N-(2-(5-(trifluoromethyl)pyridin-2-yl)benzo[d]oxazol-5-yl)propiolamide]
H. sapiens p97 (P55072)
  IC50: 0.41 ± 0.084 µM
[1]
  Fold Selectivity: 2.3
  IC50: 0.18 ± 0.026 µM
HepG2 cells; HepG2, 72 h
  GI50: 2.6 µM
  IC50: 3.4 µM
HepG2 cells; HepG2, read-out: HepG2 GI50
  GI50: 2.6 µM
HepG2 cells; HepG2, read-out: HepG2 IC50
  IC50: 3.4 µM
Adult S. mansoni worms
  EC50: 2.4 µM
